We go through two compounds from patent publication US20030073218A1, “High affinity inhibitors for target validation and uses thereof” (Princeton University, priority 1999, published 2003).

The chains behind the UniProt entries cited, without tags or fusion partners.
UniProt Q9UQM7, whole entry: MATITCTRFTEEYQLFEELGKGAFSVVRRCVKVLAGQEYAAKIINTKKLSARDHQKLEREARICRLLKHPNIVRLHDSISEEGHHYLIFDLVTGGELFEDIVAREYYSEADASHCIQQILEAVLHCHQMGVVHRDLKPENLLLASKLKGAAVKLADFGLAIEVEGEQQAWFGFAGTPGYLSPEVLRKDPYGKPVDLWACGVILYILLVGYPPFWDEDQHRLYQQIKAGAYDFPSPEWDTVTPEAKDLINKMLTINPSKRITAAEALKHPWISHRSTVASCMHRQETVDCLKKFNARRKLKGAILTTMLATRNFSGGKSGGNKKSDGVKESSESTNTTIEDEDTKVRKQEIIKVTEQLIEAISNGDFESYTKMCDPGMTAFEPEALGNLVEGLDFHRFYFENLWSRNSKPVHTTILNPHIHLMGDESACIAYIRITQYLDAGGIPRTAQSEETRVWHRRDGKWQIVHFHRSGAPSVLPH

What is called IC50 is the point on the concentration scale where inhibition reaches its midpoint.

Experiment [1] concerns the target myosin light chain kinase. Conditions: reported (89, 90); cited from earlier work.
The next experiment addresses wild-type CMK IIα (Homo sapiens, UniProt Q9UQM7). Briefly: biochemical.

On to `COC(=O)[C@@]1(O)C[C@H]2O[C@]1(C)n1c3ccccc3c3c4c(c5c6ccccc6n2c5c31)C(=O)NC4` [Compound K252a, (+)-K252a], for which the IC50 in experiment [1] was no more than 0.03 µM.

On wild-type CMK IIα, `Cc1ccc(-c2nn(C(C)(C)C)c3ncnc(N)c23)cc1` [PP1, 4-amino-1-tert-butyl-3-(p-methylphenyl)pyrazolo[3,4-d]pyrimidine, reference compound] displayed an IC50 greater than 15 µM.
